Experimental data published in US8962670B2, “Anti-cancer agents” (UWM Research Foundation, Inc., priority 2011, dated 2015).

Assays:
49 mer DNA duplex 292 = settings: 50 μM H2O2 + 100 μM compound
[1] = system: NCI-H460 (Non-small Cell Lung Cancer cells); test: Cancer cell growth inhibition (Example 14); settings: 10 μM, 48 h
Experimental: (§1) The abilities of compounds 37, 38 and 40 to inhibit cancer cell growth were evaluated. Results are illustrated in FIG. 4A: Four human cancer cell lines (SR, NCI-H460, CAKI-1, and SN12C) were incubated with 10 μM of compounds 40, 38 and 37 for 48 h (grey bar—37; black bar—40; lined bar—38). […] .

[2] = system: SN12C (Renal Cancer cells); test: Cancer cell growth inhibition (Example 14); settings: 10 μM, 48 h
Experimental: as §1

Structure (SMILES): CC1(C)OB(c2ccc(C[N+](C)(CCCl)CCCl)cc2)OC1(C)C [Compound 40, N,N-Bis(2-chloroethyl)-N-methyl-N-[4-(4,4,5,5-tetramethyl-1,3,2-dioxaborolan-2-yl)phenyl]methanaminium bromide]
- cross-linking yield (49 mer DNA duplex 292): 2.2%

Structure (SMILES): CN1CCOB(c2ccc(C[N+](C)(CCO)CCO)cc2)OCC1
- inhibition [1]: less toxic
- inhibition [2]: less toxic
